Data published in patent publication US7223792B2, “Cytotoxic annonaceous acetogenins from Annona muricata” (Advpharma Inc., priority 2001, dated 2007).

Tested on: Hep G2
Test: three days cytotoxicity bioassay against Hep G2
Conditions: human hepatoma cell line Hep G2, three days bioassay

## Corossolin [Corossolin (11), reference compound]
  Cytotoxicity IC50 Hep G2: 0.353 µg/mL
